The chains behind the UniProt entries cited, without tags or fusion partners.
UniProt P68400, whole entry: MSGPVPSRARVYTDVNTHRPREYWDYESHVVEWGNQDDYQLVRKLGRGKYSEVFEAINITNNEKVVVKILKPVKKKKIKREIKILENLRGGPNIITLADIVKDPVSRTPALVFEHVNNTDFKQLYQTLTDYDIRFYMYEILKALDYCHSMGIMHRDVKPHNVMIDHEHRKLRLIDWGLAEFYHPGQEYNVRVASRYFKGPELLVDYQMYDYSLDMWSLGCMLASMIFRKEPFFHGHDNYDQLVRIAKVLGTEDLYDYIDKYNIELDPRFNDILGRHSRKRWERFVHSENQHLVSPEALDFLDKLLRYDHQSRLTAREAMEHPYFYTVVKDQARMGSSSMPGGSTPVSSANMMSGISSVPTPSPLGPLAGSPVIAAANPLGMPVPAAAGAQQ
UniProt P19784, whole entry: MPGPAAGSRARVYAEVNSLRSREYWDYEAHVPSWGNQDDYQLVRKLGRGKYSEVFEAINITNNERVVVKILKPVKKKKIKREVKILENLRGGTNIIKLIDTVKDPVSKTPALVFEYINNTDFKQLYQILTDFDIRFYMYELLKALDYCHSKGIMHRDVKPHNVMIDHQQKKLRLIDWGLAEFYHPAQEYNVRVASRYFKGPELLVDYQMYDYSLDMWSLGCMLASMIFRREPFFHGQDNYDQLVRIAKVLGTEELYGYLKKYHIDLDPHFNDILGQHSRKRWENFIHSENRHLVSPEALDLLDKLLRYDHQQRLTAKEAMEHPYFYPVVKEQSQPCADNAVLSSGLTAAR

According to ChEMBL document CHEMBL1926659, “CK2α and CK2α' subunits differ in their sensitivity to 4,5,6,7-tetrabromo- and 4,5,6,7-tetraiodo-1H-benzimidazole derivatives” (Eur J Med Chem, 2012):

What was measured:
[1] = biological target: T1, Casein kinase II subunit alpha (Homo sapiens, UniProt P68400); assay: Inhibition of human CK2 alpha catalytic subunit expressed in Escherichia coli BL21 (DE3) assessed as [32P]gamma-ATP incorporation into P2B substrate after 15 mins by scintillation counting
[2] = biological target: T2, Casein kinase II subunit alpha' (Homo sapiens, UniProt P19784); assay: Inhibition of human CK2 alpha' catalytic subunit expressed in Escherichia coli BL21 (DE3) assessed as [33P]gamma-ATP incorporation into P2B substrate after 15 mins by scintillation counting
[3] = biological target: T2, Casein kinase II subunit alpha'; assay: Inhibition of human CK2 alpha' catalytic subunit expressed in Escherichia coli […] (DE3) assessed as [33P]gamma-ATP incorporation into RRRADDSDDDDD substrate after 15 mins by scintillation counting
[4] = biological target: T1, Casein kinase II subunit alpha; assay: Inhibition of human CK2 alpha catalytic subunit expressed in Escherichia coli BL21 (DE3) assessed as [32P]gamma-ATP incorporation into RRRADDSDDDDD substrate after 15 mins by scintillation counting

## CN(C)c1nc2c(Br)c(Br)c(Br)c(Br)c2[nH]1
[1]
  Ki: 97 nM
[2]
  Ki: 112 nM
[3]
  Ki: 133 nM
[4]
  Ki: 139 nM
